Earlier results on one substance are cited in US20210275657A1, “NEOANTIGENS AND USES THEREOF” (BioNTech US Inc., priority 2018, published 2021).

The conditions of this series: more than 25 clinical trials; cited from earlier work.

poly-ICLC: the toxicity profile result is listed as “relatively benign toxicity profile”.
